Our source for the IC50 values is paper PMC4579573.

As a reminder, the IC50 is the concentration needed to halve the response being measured. High values mean weaker potency in that assay, low ones greater potency in that assay.

The assay addresses BRCC36(E30A)-KIAA0157ΔC complex (C. floridanus) (UniProt E2AXC7). The experiment in a line: fluorescence polarisation; competition: displacement of the AlexaFluor-488 labeled K63-linked diUb tracer by unlabeled ubiquitin species. On the technique in general: Polarisation of emitted light reports the rotation of a fluorescent probe.

In the case of “mono ubiquitin (from UniProt P0CG48 1-76) (natural protein)”, the half-maximal inhibitory concentration (IC50) is 74 µM.

Consider “unlabeled K63 linked diUb (from UniProt P0CG48 1-76)”, for which the half-maximal inhibitory concentration (IC50) is 6.4 µM.
